This assay addresses T1, Histone deacetylase 8 (Homo sapiens, UniProt Q9BY41).
T1 sequence (Q9BY41 whole entry): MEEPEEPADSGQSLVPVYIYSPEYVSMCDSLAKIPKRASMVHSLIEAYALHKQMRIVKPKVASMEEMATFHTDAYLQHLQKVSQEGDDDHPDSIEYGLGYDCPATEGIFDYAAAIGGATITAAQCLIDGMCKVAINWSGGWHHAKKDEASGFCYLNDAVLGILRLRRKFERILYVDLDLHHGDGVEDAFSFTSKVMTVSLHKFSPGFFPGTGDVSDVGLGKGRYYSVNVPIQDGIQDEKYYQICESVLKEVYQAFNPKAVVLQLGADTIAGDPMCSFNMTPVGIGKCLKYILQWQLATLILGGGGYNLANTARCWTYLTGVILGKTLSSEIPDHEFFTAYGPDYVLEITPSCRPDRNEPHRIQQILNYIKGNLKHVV
Kind of assay: Inhibition of human recombinant HDAC8 using fluorogenic substrate measured after 30 mins.

Results on one molecule are retold here after ChEMBL document CHEMBL5223156, “Synthesis and biological evaluation of novel N-benzyltriazolyl-hydroxamate derivatives as selective histone deacetylase 6 inhibitors” (Bioorg Med Chem, 2023).

pIC50: −log10 of the molar value.

Usually pIC50 stands for the IC50 on a negative log10 scale, so that one unit is a factor of ten. As to `O=C(CCCCCCC(=O)Nc1ccccc1)NO` [VORINOSTAT], the pIC50 was 5.54.
